Here are results for 3 substances from patent US12714711B2, “Salts of neuroceuticals and uses thereof” (priority 2020, dated 2026).

Series [1] is described as follows: Carr Index (USP 1174), flowability. The series is classed as physicochemical.
The nature of series [2]: Water solubility at 25° C.

As to clozapine:enriched tannic acid 2:1 salt, in series [1], the “Carr Index” value is given as 33%.
Turning to clozapine:enriched tannic acid 4:1 salt, the “Carr Index” value in series [1] is given as 19%.
In series [2], olanzapine:pantothenic acid 5:1 salt registered a water solubility of 128 mg/mL.
